Values of other authors, collected in publication PMC9227077 (2022).

Experiments:
human serum albumin = conditions: pH=7.4, isocratic, 10% acetonitrile; available for 37 compounds, remaining calculated by equation; cited from earlier work
[1] = most values in rats, average if more than one value; cited from earlier work

## CN(C)C(=N)N=C(N)N [Metformin]
Human serum albumin
  logk10,HSA: -1.37

## CNC(=C[N+](=O)[O-])NCCSCc1ccc(CN(C)C)o1 [Ranitidine]
[1]
  fu,brain: 0.955
